Measured values published in US11370779B2, “Pharmaceutical composition for preventing or treating acute myeloid leukemia or metastatic breast cancer” (PELEMED CO., LTD., priority 2017, dated 2022).

What was measured:
MDA-MB-231 = test: Cell viability, EZ-Cytox tetrazolium assay, MDA-MB-231; conditions: read-out: GI50(nM) MDA-MB-231; 72 hours; tested form: 2HCl
MV4;11 cells = test: Cell viability, EZ-Cytox tetrazolium assay, MV4;11; format: cell-based, human; conditions: read-out: Ic50 (nM) MV4;11; Table 1; 72 hours; tested form: HCl

## O=C1Nc2ccc(F)cc2/C1=C1/Nc2ccccc2/C1=N\OCCNC1CCNCC1
MDA-MB-231
  GI50: 362 nM

## O=C1Nc2ccc(F)cc2/C1=C1/Nc2ccc(F)cc2/C1=N\OCCNC1CCNCC1
MDA-MB-231
  GI50: 972 nM

## O=C1Nc2ccc(C(=O)O)cc2/C1=C1/Nc2ccccc2/C1=N\OCCN1CCOCC1
MV4;11 cells
  IC50: 1000 nM

## O=C1Nc2ccccc2/C1=C1/Nc2ccccc2/C1=N\OCCNC1CCNCC1
MDA-MB-231
  GI50: 320 nM
